# pIC50: −log10 of the molar value.
# Biological target: T1, Glycogen phosphorylase, muscle form (Oryctolagus cuniculus, UniProt P00489)
# T1 sequence (P00489 whole entry): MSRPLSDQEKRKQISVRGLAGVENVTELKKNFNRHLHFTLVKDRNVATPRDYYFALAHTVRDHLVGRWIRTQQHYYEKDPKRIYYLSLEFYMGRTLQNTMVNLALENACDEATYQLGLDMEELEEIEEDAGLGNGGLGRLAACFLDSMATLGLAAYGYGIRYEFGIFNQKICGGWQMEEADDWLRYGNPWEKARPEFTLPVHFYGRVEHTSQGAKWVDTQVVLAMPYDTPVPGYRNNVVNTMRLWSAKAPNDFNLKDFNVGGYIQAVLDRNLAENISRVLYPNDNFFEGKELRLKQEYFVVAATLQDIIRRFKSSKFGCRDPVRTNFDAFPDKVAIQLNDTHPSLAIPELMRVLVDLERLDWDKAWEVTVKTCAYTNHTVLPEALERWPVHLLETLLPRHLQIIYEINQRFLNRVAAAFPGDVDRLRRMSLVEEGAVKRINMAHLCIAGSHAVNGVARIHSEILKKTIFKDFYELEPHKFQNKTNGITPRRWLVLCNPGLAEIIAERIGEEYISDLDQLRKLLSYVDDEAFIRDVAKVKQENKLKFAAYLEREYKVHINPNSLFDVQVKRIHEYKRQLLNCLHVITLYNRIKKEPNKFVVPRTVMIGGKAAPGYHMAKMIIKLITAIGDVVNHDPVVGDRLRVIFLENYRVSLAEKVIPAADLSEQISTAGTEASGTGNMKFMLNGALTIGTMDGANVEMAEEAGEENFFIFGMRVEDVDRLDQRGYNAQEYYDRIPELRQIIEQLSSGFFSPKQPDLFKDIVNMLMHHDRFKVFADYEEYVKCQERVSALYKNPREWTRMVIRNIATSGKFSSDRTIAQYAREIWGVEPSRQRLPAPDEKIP
structure (smiles),measurement,value
OC[C@H]1CN(CCCc2ccccc2)C[C@@H](O)[C@@H]1O,pIC50,6.08

# — ChEMBL document CHEMBL1137256, “Iminosugars as potential inhibitors of glycogenolysis: structural insights into the molecular basis of glycogen phosphorylase inhibition” (J Med Chem, 2006)
